Bioassay records as filed in PubChem.
Sampled rows, rich in hits. Any-hit rate of the full collection: about 4.2%.
Yeast UUG start-1: modulators of start codon recognition fidelity in yeast. activity score, % at 18.7 µM. S. cerevisiae UUG-firefly luciferase reporter, luminescence/redox ratio. 350,000 compounds, 0.13% hits;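 active means replicate mean at a twofold rise or more, about +100% in these data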;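 further: firefly luciferase made from a UUG start codon reports start codon fidelity; reporter light over untreated wells divided by growth signal over untreated wells; some hits fall short of that in this replicate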
MC4R barr agon: agonists of human melanocortin 4 receptor (MC4R) beta-arrestin; AID 540308; U2OS MC4R beta-arrestin complementation, luminescence; percent of melanotan II response, DMSO zero; activation, % at 8.9 µM; actives 0.98% (n = 360,000); P32245;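 active = activation above a per-plate cutoff, the mean activation of sample wells on that plate plus 3 SD, cut at about 8% in these data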
HDAC3 inh: blocks human histone deacetylase 3; AID 2718; actives 0.15% (n = 320,000); inhibition, % at 8.3 µM; recombinant HDAC3, fluorogenic peptide/trypsin coupled, fluorescence; O15379; in the data active = inhibition above about 26%, passing the limit was not always enough
MC4R antag cAMP: antagonists of human melanocortin 4 receptor (MC4R); MC4R-expressing cells, MTII-stimulated cAMP, LANCE TR-FRET; P32245; actives 0.48% (n = 360,000); inhibition, % at 6.5 µM;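 active = inhibition above its plate's cutoff, the mean of tested wells on that plate plus 3 SD, cut at about 29% in these data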;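 also: 0% = Melanotan II alone and 100% = Melanotan II plus saturating MCL0020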
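System: U2OS cells stably expressing human melanocortin 4 receptor (MC4R). Reagent: Melanotan II challenge after compound preincubation. Doses: 6.5 µM. Times: 30-min compound, 1-h challenge, 1-h detection, room temperature. Measured by: TR-FRET with Eu-cAMP and labeled anti-cAMP, 671 nm. Replicates: singlicate.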
NALP1 yeast inh: inhibitors of NALP1 inflammasome in yeast; actives 0.61% (n = 280,000); inhibition, % at 10 µM; AID 2071; S. cerevisiae NALP1/ASC/caspase-1 growth, X-gal OD620, 72 h; in the data active = inhibition mostly above about 24%, no sharp cut-off; inactive = mostly below about 32%
ALR inh: human ALR oxidase inhibition via reduced H2O2; P55789; purified ALR, DTT oxidation, H2O2 HRP-luminol luminescence; inhibition, % (test concentration not listed); actives 3.8% (n = 290,000); AID 485317;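 active means mean and each replicate at 75% or more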;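 further: stock transfer was 7.5 nL into about 7.5 µL; 0% = neutral wells and 100% = wells with inactivated enzyme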
Yeast UUG start-2: modulators of start codon recognition fidelity in yeast; shares compounds with Yeast UUG start-1; S. cerevisiae UUG-start firefly luciferase, luminescence, 4 h; 100% means double the DMSO signal; activation, % at 38 µM; 540 tested, under 10 active;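 active = signal increase whose fitted curve reaches an absolute level of 40 at a concentration under 10 µM; inactive = activity opposite to the expected increase, or the rest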
* marks the source's active call; other numbers are inactive results.

What do the screens show for `CC(=O)N(C)C[C@H]1Oc2cc(-c3cncnc3)ccc2S(=O)(=O)N([C@@H](C)CO)C[C@@H]1C`?
Yeast UUG start-1: 23

Results for Cc1ccc(S(=O)(=O)N[C@H]2CC[C@H](CCNC(=O)C3CCCCC3)O[C@H]2CO)cc1 ?
Yeast UUG start-1: 146*; Yeast UUG start-2: inactive

Results for COc1ccccc1S(=O)(=O)N[C@H]1CC[C@@H](CCNC(=O)C2CCCC2)O[C@@H]1CO ?
Yeast UUG start-1: 127*; Yeast UUG start-2: inactive

How did COc1ccccc1S(=O)(=O)N[C@@H]1CC[C@H](CCNC(=O)C2CCCC2)O[C@H]1CO do in these assays?
Yeast UUG start-1: -11

What do the screens show for `Cc1ccc(S(=O)(=O)N[C@@H]2CC[C@@H](CCNC(=O)C3CCCCC3)O[C@@H]2CO)cc1`?
Yeast UUG start-1: -15

What do the screens show for `CC(C)NC(=O)N[C@H]1CC[C@H](CCNC(=O)C2CCC2)O[C@H]1CO`?
Yeast UUG start-1: 136*; Yeast UUG start-2: inactive

Results for COc1ccc(NC(=O)Nc2cccc3c2O[C@@H](CN(C)C(=O)Nc2ccccc2)[C@H](C)CN([C@@H](C)CO)C3=O)cc1 ?
Yeast UUG start-1: 12

How did Cc1ccc(S(=O)(=O)N(C)C[C@H]2Oc3c(NS(=O)(=O)c4ccc(Cl)cc4)cccc3C(=O)N([C@H](C)CO)C[C@H]2C)cc1 do in these assays?
Yeast UUG start-1: 20

How did CCOC(=O)Cn1nc(C)n(-c2ccc(Cl)cc2)c1=O do in these assays?
MC4R barr agon: -2; HDAC3 inh: 4; MC4R antag cAMP: 13; NALP1 yeast inh: 8; ALR inh: -10

Results for CCOC(=O)Cn1nc(C)n(-c2cccc(Cl)c2)c1=O ?
Yeast UUG start-1: 223*; MC4R barr agon: 2; HDAC3 inh: -1; MC4R antag cAMP: -1; NALP1 yeast inh: 7; ALR inh: -6; Yeast UUG start-2: -3

How did CN(C)C(=O)C[C@@H]1CC[C@@H]2[C@H](COc3ccc(NC(=O)Nc4cccc(Cl)c4)cc3C(=O)N2C)O1 do in these assays?
Yeast UUG start-1: 3

What do the screens show for `O=C(NC1CCOC1)c1ccc(OC2CCN(CCc3ccccc3)CC2)cc1` (stereo not drawn)?
Yeast UUG start-1: 503*; MC4R barr agon: 0; HDAC3 inh: 3; MC4R antag cAMP: 1; NALP1 yeast inh: 19; ALR inh: -4; Yeast UUG start-2: -2

What do the screens show for `CCCCn1c(N)c(N(CCOC)C(=O)C2CC(=O)N(c3ccc(CC)cc3)C2)c(=O)[nH]c1=O` (stereo not drawn)?
Yeast UUG start-1: 129*; MC4R barr agon: -4; HDAC3 inh: 3; MC4R antag cAMP: 17; ALR inh: -24; Yeast UUG start-2: -6

Results for CCCCn1c(N)c(N(CCOC)C(=O)C2CC(=O)N(Cc3ccc(C)cc3)C2)c(=O)[nH]c1=O (stereo not drawn) ?
Yeast UUG start-1: -6; MC4R barr agon: 0; HDAC3 inh: 5; MC4R antag cAMP: 4; ALR inh: -4

How did COCCNC(=O)C[C@H]1C[C@@H]2c3cc(NS(=O)(=O)c4ccc(F)cc4)ccc3O[C@@H]2[C@H](CO)O1 do in these assays?
Yeast UUG start-1: 11

How did C[C@@H]1CN([C@H](C)CO)C(=O)c2cc(C#Cc3ccccc3F)cnc2O[C@H]1CN(C)C(=O)Cc1cccnc1 do in these assays?
Yeast UUG start-1: -7

How did C[C@@H]1CN([C@H](C)CO)C(=O)c2cc(C#CCN(C)C)cnc2O[C@@H]1CN(C)C(=O)Cc1ccccc1 do in these assays?
Yeast UUG start-1: 35

What do the screens show for `C[C@@H]1CN([C@@H](C)CO)C(=O)c2cc(C#CCN(C)C)cnc2O[C@@H]1CN(C)C(=O)Cc1ccccc1`?
Yeast UUG start-1: 176*; Yeast UUG start-2: inactive

Results for C[C@@H]1CN([C@@H](C)CO)C(=O)c2cc(C#Cc3ccccc3F)cnc2O[C@@H]1CN(C)C(=O)Cc1cccnc1 ?
Yeast UUG start-1: 153*; Yeast UUG start-2: inactive

Some of these compounds in order of length of the SMILES, ascending:
What do the screens show for `O=C(NC1CCOC1)c1ccc(OC2CCN(CCc3ccccc3)CC2)cc1` (stereo not drawn)?
Yeast UUG start-1: 503*; MC4R barr agon: 0; HDAC3 inh: 3; MC4R antag cAMP: 1; NALP1 yeast inh: 19; ALR inh: -4; Yeast UUG start-2: -2

How did CN(C)C(=O)C[C@@H]1CC[C@@H]2[C@H](COc3ccc(NC(=O)Nc4cccc(Cl)c4)cc3C(=O)N2C)O1 do in these assays?
Yeast UUG start-1: 3

Results for COc1ccc(NC(=O)Nc2cccc3c2O[C@@H](CN(C)C(=O)Nc2ccccc2)[C@H](C)CN([C@@H](C)CO)C3=O)cc1 ?
Yeast UUG start-1: 12
